Test results reported in patent publication US12310973B2, “Administration and dosage of diaminophenothiazines” (WisTa Laboratories Ltd., priority 2016, dated 2025).

By UniProt entry, the sequences of proteins in these tests, tags left out.
UniProt P08183, whole entry: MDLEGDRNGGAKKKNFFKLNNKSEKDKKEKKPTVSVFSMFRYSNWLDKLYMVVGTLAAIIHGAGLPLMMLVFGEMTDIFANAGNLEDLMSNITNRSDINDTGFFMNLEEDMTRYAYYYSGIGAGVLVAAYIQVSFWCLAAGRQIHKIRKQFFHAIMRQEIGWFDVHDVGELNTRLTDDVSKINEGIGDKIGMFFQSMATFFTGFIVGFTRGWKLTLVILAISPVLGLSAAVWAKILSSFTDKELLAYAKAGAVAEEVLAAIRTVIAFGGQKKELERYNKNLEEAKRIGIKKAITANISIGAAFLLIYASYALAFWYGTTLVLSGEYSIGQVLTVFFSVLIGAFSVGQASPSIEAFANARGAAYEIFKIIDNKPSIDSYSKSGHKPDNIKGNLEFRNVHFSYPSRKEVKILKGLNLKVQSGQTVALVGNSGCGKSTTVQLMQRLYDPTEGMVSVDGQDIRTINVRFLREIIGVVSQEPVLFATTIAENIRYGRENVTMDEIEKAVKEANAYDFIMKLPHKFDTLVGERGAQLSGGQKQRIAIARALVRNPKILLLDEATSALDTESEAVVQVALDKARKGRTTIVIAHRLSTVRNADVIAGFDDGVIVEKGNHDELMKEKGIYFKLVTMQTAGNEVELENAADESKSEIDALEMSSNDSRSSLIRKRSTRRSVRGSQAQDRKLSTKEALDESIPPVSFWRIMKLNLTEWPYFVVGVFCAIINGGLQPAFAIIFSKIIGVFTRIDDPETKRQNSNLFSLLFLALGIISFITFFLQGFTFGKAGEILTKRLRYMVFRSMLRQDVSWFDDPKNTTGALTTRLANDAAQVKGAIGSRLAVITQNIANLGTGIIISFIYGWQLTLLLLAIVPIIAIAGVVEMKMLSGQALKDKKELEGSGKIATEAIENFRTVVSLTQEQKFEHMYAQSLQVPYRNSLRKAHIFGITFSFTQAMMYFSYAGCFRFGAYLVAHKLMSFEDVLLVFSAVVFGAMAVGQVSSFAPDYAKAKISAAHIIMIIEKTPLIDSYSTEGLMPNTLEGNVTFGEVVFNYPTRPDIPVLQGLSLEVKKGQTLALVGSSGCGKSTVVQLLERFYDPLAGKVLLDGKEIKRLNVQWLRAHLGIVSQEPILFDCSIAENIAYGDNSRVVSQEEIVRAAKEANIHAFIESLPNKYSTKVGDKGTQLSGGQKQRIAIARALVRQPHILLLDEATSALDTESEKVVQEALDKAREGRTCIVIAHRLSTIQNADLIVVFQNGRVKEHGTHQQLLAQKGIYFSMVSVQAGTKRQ

Biological target: multidrug resistance protein 1 (MDR1) (Homo sapiens, UniProt P08183)
Conditions: unpublished data

With methylthioninium [MT] the “Substrate for MDR1 pathway” value was “pH-dependent substrate”.
